We go through two compounds from ChEMBL document CHEMBL1149912, “Chemical fragments as foundations for understanding target space and activity prediction” (J Med Chem, 2008).

By UniProt entry, the sequences of proteins in these tests, tags left out. Where a name states a change or a piece, a line headed by the entry shows the natural chain unless it says otherwise.
UniProt P07711: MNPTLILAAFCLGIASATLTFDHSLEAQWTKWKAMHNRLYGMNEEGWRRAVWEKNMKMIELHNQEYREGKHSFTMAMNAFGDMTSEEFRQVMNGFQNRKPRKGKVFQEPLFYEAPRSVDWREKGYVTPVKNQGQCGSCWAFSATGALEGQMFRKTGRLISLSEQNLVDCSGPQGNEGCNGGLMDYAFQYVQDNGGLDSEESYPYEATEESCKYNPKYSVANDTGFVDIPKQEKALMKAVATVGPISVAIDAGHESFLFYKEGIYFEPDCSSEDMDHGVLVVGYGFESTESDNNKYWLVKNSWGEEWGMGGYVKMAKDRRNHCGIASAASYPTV
UniProt P37231: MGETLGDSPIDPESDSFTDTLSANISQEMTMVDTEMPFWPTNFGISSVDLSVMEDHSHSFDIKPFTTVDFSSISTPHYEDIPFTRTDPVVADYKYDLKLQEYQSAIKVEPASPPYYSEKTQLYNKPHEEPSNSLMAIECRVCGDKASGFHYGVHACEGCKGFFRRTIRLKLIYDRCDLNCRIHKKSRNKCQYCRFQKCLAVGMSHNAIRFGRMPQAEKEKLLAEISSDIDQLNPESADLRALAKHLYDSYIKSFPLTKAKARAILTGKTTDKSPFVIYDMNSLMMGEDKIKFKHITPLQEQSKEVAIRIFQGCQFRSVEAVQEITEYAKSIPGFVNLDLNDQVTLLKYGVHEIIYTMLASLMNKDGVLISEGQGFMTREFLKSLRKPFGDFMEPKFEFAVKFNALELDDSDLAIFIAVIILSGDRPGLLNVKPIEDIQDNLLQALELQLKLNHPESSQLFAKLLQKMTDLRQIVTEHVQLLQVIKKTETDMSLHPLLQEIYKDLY

For experiment [1], the target named is Procathepsin L (Homo sapiens) (UniProt P07711). Description: Inhibition of CTSL.
For experiment [2], the target named is Peroxisome proliferator-activated receptor gamma (Homo sapiens) (UniProt P37231). The experiment can be described thus: Inhibition of PPARG.

`O=C(N[C@@H](Cc1ccccc1)C(=O)N[C@H]1C(=O)N[C@@H]1Oc1ccccc1)OCc1ccccc1`: the Activity in experiment [1] turned out to be 17 nM.

`CCCc1c(OCCCOc2ccc(CC(=O)O)cc2)ccc2c(-c3ccccc3)noc12` showed an Activity in experiment [2] of 32 nM.
